The values below come from publication PMC8973347, “Discovery of novel sulphonamide hybrids that inhibit LSD1 against bladder cancer cells” (Journal of Enzyme Inhibition and Medicinal Chemistry, 2022).

By UniProt entry, the sequences of proteins in these tests, tags left out.
UniProt P27338, whole entry, species assumed: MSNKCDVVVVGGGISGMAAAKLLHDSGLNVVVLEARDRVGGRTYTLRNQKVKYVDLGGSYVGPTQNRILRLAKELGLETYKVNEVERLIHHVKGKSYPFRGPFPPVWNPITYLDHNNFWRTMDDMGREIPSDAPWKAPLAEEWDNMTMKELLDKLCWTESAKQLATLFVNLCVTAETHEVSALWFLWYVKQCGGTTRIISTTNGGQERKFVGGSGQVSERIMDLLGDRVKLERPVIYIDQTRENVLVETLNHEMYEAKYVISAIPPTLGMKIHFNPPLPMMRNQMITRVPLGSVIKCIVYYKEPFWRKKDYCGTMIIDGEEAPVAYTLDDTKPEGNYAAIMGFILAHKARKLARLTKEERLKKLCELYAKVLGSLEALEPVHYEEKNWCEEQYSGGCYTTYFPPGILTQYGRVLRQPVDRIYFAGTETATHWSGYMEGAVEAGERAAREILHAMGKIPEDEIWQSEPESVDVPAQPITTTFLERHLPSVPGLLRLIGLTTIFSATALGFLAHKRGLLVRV

The target of the assay is T1, MAO-B (Homo sapiens, UniProt P27338).
T1 construct: purchased Promega
The assay can be described thus: MAO-A/B biochemical kit, MAO-B.

As for `N[C@H]1CC[C@H](N[C@@H]2C[C@H]2c2ccccc2)CC1` [ORY-1001, reference compound], the IC50 is greater than 120 µM.

The term IC50 denotes the concentration at which inhibition is half-maximal.
